Drawing on ChEMBL document CHEMBL1144006, “Phenylalanine-containing hydroxamic acids as selective inhibitors of class IIb histone deacetylases (HDACs)” (Bioorg Med Chem, 2008), this text covers IC50 for one compound.

The test concerns the target T1, Protein deacetylase HDAC6 (Homo sapiens, UniProt Q9UBN7).
T1 sequence (Q9UBN7 whole entry): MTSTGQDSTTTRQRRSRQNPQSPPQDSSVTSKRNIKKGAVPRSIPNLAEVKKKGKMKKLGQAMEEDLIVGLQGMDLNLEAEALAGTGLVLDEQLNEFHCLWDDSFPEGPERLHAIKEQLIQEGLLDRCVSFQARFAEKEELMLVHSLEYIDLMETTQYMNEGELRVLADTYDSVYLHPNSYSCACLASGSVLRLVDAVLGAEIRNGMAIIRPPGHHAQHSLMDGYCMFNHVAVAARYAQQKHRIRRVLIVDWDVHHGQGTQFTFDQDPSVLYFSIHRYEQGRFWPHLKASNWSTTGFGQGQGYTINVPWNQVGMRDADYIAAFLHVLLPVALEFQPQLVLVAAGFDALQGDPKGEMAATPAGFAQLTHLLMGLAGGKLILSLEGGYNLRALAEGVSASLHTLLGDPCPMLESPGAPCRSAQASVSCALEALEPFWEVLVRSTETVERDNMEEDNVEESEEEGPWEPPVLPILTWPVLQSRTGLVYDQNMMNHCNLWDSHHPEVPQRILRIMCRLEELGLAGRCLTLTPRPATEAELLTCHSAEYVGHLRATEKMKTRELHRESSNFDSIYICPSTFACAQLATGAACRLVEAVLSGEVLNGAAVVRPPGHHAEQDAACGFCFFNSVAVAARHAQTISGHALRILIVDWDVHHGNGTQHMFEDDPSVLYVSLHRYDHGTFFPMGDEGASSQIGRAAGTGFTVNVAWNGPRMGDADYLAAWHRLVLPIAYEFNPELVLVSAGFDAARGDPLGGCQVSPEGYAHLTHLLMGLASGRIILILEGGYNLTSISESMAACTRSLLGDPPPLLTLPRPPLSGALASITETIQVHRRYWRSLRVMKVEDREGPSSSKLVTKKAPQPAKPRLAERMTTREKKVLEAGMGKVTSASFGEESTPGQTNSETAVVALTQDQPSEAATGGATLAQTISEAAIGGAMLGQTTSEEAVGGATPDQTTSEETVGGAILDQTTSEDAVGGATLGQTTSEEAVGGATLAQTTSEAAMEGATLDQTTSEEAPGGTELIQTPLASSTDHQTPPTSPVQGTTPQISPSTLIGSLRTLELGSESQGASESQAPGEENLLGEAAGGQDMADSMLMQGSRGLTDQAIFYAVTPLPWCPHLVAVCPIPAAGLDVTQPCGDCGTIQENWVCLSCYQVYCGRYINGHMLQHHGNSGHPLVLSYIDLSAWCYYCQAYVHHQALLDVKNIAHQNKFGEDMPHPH
As to the kind of experiment: Inhibition of FLAG-tagged HDAC6 expressed in human 293T cells. It counts as cell-based. The method in brief: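 FLAG-HDAC1 or FLAG-HDAC6 was immunoprecipitated with M2 agarose from lysates of overexpressing 293T cells, washed in enzyme buffer and diluted 1:10. Bead suspension, inhibitor and unselective fluorogenic substrate ZMAL were incubated at 37 C for 180 min. The reaction was stopped with TSA/borate pH 9.5/NDA and read at ex 330/em 390 nm. IC50 came from a dilution series against 0% and 100% (TSA) inhibition standards. Selectivity is the ratio of HDAC1 to HDAC6 IC50.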

In turn, `COC(=O)[C@H](Cc1ccc(Br)cc1)NC(=O)CCCCCCC(=O)NO` returned an IC50 of 1690 nM.

By IC50 is commonly meant the concentration that inhibits the measured activity by half. Higher therefore signals lower potency.
